# Earlier results in patent US12378302B2, “Fusion molecules and uses thereof” (Foundation Medicine, Inc., priority 2012, dated 2025).
# Test system: pancreatic cancer
# Conditions: Phase 1, in combination with other drugs
compound,measurement,value
CS(=O)(=O)CCNCc1ccc(-c2ccc3ncnc(Nc4ccc(OCc5cccc(F)c5)c(Cl)c4)c3c2)o1 [lapatinib],safety,safety
